The IC50 is the concentration at which inhibition is half-maximal. High values mean lower potency, low ones higher potency.

The chains behind the UniProt entries cited, without tags or fusion partners.
UniProt P32300, whole entry: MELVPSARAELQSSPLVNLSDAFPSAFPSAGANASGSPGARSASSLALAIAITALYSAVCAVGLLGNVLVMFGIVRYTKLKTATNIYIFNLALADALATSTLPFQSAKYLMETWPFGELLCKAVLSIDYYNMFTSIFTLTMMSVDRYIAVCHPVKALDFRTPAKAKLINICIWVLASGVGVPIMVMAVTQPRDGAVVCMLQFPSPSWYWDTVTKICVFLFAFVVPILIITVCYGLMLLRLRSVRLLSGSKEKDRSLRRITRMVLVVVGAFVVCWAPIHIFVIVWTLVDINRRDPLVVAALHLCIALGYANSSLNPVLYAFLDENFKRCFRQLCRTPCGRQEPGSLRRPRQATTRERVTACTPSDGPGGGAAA

Drawing on ChEMBL document CHEMBL1130417 (J Med Chem, 1997), this text covers IC50 for one compound.

This test has as its target Delta-type opioid receptor (Mus musculus, UniProt P32300). In words: Agonist activity was evaluated in guinea pig ileum (GPI) preparations at Opioid receptor delta 1. Format: functional, tissue-based.

The structures appear in SMILES notation.

Consider `CC(NC(=O)[C@@H](N)Cc1ccc(O)cc1)C(=O)N[C@@H](Cc1ccccc1)C(=O)N[C@@H](CC(=O)O)C(=O)N[C@H](C(=O)N[C@H](C(=O)NCC(N)=O)C(C)C)C(C)C` (single isomer, unassigned) [DELTORPHIN C], for which the IC50 amounted to 0.85 nM.
